Literature values in patent publication US8518957B2, “Methanocarba adenosine derivatives, pharmaceutical compositions, and method of reducing intraocular pressure” (The United States of America, as represented by the …, priority 2009, dated 2013).

Chains of the proteins cited; added tags and fusions are not shown.
UniProt P0DMS8, whole entry: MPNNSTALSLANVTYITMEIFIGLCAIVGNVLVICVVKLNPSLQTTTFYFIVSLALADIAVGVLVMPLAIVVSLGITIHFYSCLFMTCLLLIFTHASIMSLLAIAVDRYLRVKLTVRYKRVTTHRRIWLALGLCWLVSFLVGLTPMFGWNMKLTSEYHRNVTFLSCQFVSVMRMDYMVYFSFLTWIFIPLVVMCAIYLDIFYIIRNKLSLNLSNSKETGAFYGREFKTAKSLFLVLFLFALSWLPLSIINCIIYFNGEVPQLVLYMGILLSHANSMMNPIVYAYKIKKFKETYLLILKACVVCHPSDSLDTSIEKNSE

Target: human A3AR (Homo sapiens, UniProt P0DMS8)
Conditions: at 10 μM, relative to NECA 10 μM; values from Tosh et al.; cited from earlier work

SMILES: CNC(=O)[C@@]12C[C@@H]1[C@@H](n1cnc3c(NCc4cccc(Cl)c4)nc(C#CCCC(=O)NCCNC(=O)CCCCCNC(=O)CCCC[C@@H]4SC[C@@H]5NC(=O)N[C@@H]54)nc31)[C@H](O)[C@@H]2O
- % Inhibition of cAMP formation at hA3 AR: 107 ± 18%
